{"source": "patent US20120288531A1", "about": "“PHARMACEUTICAL COMPOSITIONS FOR DELIVERY OF FERRIC IRON COMPOUNDS, AND METHODS OF USE THEREOF” (priority 2011, published 2012)", "key": {"[1]": {"conditions": "one month at 25° and 40° C."}, "[2]": {"assay": "Plasma iron levels after administration of ferric compounds via three routes (FIG. 2)", "conditions": "conscious Sprague-Dawley rats, intra-jejunal via cannula, baseline to 4 hours post-dosing"}, "[3]": {"assay": "Single-dose pharmacokinetic study of enteric-coated gelatin capsules in male beagle dogs", "conditions": "16 tested dogs"}}}
{"substance": "ammonium iron(III) citrate [ferric ammonium citrate]", "values": [{"measurement": "stability in the oily suspension", "setting": "[1]", "result": "good stability"}, {"measurement": "plasma iron levels (absorption from the jejunum)", "setting": "[2]", "result": "baseline results"}, {"measurement": "side-effects", "setting": "[3]", "result": "No side-effects"}]}
